Assays:
[1] = molecular target: human αvβ3-integrin (Homo sapiens, UniProt P05106+P06756); assay: ELISA-like solid-phase binding assay, soluble integrin αvβ3 vs coated vitronectin; details: read-out: IC50 αvβ3, referenced to internal standard
[2] = molecular target: human αvβ5-integrin (Homo sapiens, UniProt P06756+P18084); assay: ELISA-like solid-phase binding assay, soluble integrin αvβ5 vs coated vitronectin; details: read-out: IC50 αvβ5, referenced to internal standard
[3] = molecular target: human αvβ6-Integrin (Homo sapiens, UniProt P06756+P18564); assay: ELISA-like solid-phase binding assay, soluble integrin αvβ6 vs coated LAP (TGF-β); details: read-out: IC50 αvβ6, referenced to internal standard
[4] = molecular target: human αvβ8-Integrin (Homo sapiens, UniProt P06756+P26012); assay: ELISA-like solid-phase binding assay, soluble integrin αvβ8 vs coated LAP (TGF-β); details: read-out: IC50 αvβ8, referenced to internal standard
[5] = molecular target: human platelet integrin αIIbβ3 (Homo sapiens, UniProt P05106+P08514); assay: ELISA-like solid-phase binding assay, soluble integrin αIIbβ3 vs coated fibrinogen; details: read-out: IC50 αIIbβ3, referenced to internal standard
[6] = molecular target: α5β1 integrin (Homo sapiens, UniProt P05556+P08648); assay: ELISA-like solid-phase binding assay, soluble integrin α5β1 vs coated fibronectin; details: read-out: IC50 α5β1, referenced to internal standard

Protein sequences, listed by entry. Tags and fused reporters are not part of them. Residues count along the entry.
UniProt P05106, 27-718 limits assumed: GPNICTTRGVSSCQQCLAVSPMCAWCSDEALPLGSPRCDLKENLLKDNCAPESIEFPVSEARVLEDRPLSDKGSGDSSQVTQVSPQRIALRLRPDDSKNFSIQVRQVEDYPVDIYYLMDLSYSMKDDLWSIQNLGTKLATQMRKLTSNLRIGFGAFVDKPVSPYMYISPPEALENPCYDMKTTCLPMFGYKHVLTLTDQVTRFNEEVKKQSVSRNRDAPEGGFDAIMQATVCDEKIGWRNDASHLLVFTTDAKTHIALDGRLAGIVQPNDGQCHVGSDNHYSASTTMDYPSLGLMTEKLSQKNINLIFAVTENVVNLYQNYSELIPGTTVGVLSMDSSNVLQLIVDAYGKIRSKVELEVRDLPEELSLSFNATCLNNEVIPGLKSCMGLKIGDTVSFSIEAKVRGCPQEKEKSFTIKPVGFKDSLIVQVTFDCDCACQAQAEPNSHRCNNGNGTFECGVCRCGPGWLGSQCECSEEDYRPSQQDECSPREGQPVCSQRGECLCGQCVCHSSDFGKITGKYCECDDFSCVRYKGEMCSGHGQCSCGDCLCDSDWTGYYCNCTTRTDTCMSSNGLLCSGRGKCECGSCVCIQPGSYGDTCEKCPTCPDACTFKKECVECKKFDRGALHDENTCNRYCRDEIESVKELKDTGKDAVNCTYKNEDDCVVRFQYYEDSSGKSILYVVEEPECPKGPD
UniProt P05106, 27-788 limits assumed: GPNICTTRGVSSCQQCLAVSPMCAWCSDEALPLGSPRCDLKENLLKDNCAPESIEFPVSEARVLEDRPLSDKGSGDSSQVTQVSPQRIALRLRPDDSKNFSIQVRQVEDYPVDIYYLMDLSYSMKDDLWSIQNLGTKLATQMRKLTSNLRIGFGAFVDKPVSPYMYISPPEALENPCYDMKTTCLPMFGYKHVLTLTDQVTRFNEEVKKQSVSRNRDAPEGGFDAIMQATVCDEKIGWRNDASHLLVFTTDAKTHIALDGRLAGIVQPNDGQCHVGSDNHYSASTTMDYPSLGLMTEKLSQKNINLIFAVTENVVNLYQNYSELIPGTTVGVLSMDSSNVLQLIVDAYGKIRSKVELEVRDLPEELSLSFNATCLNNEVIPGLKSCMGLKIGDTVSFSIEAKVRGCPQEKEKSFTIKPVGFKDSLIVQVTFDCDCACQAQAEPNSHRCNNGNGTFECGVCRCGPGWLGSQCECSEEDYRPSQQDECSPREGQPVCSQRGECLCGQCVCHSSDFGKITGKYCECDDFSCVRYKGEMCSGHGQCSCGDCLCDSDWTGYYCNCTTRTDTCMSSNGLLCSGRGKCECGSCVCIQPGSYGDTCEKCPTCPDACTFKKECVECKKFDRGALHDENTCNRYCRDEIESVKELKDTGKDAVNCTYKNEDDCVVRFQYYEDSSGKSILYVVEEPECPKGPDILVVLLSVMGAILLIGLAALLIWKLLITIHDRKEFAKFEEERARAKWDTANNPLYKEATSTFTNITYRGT
UniProt P06756, 31-992 limits assumed: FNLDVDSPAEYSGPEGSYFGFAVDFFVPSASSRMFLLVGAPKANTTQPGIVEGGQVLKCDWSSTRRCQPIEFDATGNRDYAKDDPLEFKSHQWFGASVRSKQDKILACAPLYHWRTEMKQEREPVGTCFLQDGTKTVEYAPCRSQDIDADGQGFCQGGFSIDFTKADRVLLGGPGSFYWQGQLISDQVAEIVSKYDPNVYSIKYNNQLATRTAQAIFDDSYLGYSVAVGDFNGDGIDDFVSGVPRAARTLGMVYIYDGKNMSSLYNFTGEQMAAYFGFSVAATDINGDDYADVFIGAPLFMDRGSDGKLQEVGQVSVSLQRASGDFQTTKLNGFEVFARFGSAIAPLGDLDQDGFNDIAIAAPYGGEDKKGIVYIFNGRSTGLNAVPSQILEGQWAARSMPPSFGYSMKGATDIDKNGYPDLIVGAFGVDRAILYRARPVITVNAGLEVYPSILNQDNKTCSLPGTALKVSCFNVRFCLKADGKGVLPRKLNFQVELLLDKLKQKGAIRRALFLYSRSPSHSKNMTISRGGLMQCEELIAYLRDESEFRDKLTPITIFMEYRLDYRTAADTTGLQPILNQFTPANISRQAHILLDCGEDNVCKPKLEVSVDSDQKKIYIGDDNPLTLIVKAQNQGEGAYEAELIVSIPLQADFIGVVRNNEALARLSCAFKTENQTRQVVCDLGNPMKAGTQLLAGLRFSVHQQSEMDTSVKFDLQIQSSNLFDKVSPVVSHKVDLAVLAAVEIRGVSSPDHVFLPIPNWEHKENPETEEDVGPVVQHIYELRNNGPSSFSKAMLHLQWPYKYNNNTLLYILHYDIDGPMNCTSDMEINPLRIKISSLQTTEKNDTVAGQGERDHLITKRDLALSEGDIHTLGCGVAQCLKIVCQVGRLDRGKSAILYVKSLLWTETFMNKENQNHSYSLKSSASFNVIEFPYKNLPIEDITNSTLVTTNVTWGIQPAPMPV
UniProt P06756, 31-1048 limits assumed: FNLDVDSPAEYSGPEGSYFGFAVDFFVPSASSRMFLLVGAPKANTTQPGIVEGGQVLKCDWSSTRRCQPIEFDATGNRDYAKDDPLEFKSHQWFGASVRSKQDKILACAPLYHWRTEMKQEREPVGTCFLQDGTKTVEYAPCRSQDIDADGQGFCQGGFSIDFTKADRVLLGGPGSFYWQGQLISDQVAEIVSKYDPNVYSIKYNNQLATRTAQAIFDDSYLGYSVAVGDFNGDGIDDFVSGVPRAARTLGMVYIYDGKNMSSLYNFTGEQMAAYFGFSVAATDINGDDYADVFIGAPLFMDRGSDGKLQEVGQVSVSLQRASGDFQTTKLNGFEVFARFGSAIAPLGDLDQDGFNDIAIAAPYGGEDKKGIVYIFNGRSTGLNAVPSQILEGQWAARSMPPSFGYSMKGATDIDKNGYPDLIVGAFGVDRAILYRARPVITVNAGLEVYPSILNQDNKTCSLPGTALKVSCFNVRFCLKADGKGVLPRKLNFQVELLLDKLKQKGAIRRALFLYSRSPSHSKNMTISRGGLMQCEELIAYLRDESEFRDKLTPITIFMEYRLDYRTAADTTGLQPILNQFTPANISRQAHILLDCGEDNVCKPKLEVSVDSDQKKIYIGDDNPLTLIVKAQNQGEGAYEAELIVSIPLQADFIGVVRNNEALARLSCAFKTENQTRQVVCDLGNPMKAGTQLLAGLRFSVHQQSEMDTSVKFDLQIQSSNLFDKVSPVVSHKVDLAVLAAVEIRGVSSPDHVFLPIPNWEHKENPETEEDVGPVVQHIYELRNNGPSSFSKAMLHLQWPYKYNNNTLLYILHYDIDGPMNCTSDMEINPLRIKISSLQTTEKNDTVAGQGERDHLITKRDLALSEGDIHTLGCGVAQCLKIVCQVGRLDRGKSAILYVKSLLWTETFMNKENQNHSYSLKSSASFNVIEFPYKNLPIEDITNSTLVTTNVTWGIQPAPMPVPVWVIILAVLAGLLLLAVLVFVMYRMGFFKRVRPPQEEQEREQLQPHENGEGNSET
UniProt P18564, 22-707 limits assumed: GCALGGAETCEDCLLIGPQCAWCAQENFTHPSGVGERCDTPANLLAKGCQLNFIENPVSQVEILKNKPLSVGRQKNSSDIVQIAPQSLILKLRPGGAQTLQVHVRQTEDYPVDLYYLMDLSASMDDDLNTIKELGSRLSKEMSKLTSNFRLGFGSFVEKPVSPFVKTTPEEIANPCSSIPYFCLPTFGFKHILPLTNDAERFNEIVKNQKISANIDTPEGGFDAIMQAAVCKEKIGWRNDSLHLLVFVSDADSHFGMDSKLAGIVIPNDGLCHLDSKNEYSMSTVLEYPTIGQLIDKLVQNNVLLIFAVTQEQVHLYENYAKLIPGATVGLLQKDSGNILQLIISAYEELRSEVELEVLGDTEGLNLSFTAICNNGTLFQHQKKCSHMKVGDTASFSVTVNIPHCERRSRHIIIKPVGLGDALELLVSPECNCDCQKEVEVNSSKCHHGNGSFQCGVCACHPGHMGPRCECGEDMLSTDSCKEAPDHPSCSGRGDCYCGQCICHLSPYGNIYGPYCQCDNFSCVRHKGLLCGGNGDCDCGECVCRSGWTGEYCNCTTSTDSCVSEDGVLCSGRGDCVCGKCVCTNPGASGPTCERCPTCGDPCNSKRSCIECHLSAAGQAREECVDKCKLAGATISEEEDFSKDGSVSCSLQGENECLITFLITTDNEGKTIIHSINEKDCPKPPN
UniProt P08514, 32-1039 limits assumed: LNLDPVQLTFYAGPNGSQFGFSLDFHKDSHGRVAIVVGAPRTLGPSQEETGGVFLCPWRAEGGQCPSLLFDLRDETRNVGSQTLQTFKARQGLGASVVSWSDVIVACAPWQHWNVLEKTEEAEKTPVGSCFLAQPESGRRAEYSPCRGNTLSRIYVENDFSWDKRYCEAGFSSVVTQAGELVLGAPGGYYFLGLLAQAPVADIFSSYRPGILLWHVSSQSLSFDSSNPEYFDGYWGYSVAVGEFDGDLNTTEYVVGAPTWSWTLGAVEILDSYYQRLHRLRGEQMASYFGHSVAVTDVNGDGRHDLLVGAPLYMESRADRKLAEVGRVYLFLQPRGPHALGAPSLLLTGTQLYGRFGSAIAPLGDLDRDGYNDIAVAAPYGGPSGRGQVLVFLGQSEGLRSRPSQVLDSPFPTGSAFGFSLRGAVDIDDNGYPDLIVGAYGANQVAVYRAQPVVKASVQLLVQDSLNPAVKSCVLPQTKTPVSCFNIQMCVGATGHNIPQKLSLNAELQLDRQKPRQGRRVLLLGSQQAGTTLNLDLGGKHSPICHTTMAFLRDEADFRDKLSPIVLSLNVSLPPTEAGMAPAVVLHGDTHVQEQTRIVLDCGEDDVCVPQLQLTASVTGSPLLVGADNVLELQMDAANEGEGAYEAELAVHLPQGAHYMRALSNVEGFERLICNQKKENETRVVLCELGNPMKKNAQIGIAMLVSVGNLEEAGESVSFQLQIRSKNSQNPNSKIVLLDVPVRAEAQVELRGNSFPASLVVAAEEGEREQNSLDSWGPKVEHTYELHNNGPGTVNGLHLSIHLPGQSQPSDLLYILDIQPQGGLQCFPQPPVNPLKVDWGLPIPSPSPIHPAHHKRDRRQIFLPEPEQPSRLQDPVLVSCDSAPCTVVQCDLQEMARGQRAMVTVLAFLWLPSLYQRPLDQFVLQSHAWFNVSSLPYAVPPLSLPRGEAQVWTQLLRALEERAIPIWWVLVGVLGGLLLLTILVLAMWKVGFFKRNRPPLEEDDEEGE
UniProt P08648, 42-995 limits assumed: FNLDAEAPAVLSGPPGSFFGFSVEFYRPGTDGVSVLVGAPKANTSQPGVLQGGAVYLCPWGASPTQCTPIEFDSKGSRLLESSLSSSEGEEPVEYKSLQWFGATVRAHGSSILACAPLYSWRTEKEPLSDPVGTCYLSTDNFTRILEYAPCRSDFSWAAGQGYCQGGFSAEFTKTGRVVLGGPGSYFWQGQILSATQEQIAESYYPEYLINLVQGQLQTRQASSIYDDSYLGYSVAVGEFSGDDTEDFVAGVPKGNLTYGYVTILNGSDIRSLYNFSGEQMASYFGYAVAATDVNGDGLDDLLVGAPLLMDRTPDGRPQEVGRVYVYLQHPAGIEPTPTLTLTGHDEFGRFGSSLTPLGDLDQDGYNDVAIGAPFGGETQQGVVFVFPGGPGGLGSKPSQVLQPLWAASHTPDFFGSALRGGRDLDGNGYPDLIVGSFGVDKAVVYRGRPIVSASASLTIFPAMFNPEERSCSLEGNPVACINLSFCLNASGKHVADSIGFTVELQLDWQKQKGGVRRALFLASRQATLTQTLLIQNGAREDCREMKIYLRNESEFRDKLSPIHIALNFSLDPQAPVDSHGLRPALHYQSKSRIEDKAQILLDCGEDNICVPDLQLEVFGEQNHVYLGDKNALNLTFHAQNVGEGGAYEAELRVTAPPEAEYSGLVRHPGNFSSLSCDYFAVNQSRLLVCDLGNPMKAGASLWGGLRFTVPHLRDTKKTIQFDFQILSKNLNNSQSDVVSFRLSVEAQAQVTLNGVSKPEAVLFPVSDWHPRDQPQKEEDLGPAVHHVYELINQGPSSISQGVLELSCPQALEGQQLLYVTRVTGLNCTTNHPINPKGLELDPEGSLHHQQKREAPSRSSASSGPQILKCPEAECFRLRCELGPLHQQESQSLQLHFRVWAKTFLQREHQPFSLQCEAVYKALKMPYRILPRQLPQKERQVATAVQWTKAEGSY

| IC50 [1] [nM] | IC50 [2] [nM] | IC50 [3] [nM] | IC50 [4] [nM] | IC50 [5] [nM] | IC50 [6] [nM] | SMILES |
| --- | --- | --- | --- | --- | --- | --- |
| > 10000 | > 10000 | 433 | 37 | > 10000 | 2.3 | Cc1cc(OC(C)C)cc(C)c1C(=O)N[C@@H](CNC(=O)CNC(=O)c1cccc(NC(=N)N)c1)C(=O)O |
| 0.65 | 199 | > 10000 | > 10000 | > 10000 | 108 | COc1ccnc(NCCCOc2ccc(C[C@@H](CC(=O)O)NC(=O)c3ccc(OC(C)C)cc3)cc2)c1 (single isomer, unassigned) |
